Assay results published in paper PMC7700221, “Antiproliferative Homoleptic and Heteroleptic Phosphino Silver(I) Complexes: Effect of Ligand Combination on Their Biological Mechanism of Action” (Molecules, 2020).

Sequences of proteins named here, by UniProt entry; tags and fusion partners are left off. Residues count along the entry.
UniProt Q16881, 151-649 limits assumed: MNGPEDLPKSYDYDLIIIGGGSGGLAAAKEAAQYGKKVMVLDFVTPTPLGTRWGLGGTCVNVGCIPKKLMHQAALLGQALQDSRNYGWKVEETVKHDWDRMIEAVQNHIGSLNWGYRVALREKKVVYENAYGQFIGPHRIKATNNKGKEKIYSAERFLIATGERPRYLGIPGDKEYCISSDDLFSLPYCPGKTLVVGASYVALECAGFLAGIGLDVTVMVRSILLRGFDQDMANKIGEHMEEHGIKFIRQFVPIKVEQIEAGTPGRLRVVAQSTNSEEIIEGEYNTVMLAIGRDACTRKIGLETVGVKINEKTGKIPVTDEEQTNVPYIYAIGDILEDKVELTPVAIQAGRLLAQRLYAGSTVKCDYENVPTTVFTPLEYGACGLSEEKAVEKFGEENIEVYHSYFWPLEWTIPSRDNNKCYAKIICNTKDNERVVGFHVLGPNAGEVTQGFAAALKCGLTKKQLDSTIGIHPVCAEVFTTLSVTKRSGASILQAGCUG

Molecular target: human TrxR1 (Homo sapiens, UniProt Q16881)
Conditions: isolated human TrxR1, NADPH-dependent reduction of DTNB at 412 nm

## Auranofin
  IC50: 0.8 nM
